Results from ChEMBL document CHEMBL1156090, “Design and synthesis of cell potent BACE-1 inhibitors: structure-activity relationship of P1' substituents” (Bioorg Med Chem Lett, 2009).

Sequences of proteins named here, by UniProt entry; tags and fusion partners are left off. A change or cut given only in a name is not applied to a line headed by its entry.
UniProt P56817: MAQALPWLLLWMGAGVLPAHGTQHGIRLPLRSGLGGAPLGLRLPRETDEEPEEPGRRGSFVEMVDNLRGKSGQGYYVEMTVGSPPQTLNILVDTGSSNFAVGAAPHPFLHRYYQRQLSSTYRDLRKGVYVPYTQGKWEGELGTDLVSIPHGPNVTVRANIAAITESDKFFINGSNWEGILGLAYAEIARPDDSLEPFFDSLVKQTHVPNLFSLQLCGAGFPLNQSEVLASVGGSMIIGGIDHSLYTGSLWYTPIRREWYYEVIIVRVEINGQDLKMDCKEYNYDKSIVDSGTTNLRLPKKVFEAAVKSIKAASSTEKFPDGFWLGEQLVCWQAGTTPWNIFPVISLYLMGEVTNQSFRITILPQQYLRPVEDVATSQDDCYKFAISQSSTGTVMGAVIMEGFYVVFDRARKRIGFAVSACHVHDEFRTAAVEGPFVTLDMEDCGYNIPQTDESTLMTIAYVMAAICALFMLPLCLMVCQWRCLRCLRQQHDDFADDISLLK

Target: Beta-secretase 1 (Homo sapiens, UniProt P56817)

CC(=O)N[C@@H](Cc1cc(F)cc(F)c1)[C@H](O)CNC1(c2cccc(C(C)(C)C)c2)CCc2n[nH]cc2C1 (mixture of isomers)
IC50: 12 nM
